The target of assay [1] is Delta-type opioid receptor (Rattus norvegicus) (UniProt P33533). Kind of assay: Potency to inhibit [3H]- ]DSLET binding to delta receptor relative to [Leu]enkephalin.
The target in assay [2] is Mu-type opioid receptor (Rattus norvegicus) (UniProt P33535). Briefly: Potency to inhibit 3H ]DAMGO binding to mu receptor relative to [Leu]enkephalin.
Assay [3] addresses Delta-type opioid receptor (Rattus norvegicus) (UniProt P33533). Briefly: Potency to inhibit [3H]- ]DSLET binding to Opioid receptor mu 1 relative to [Leu]enkephalin.

Protein sequences, listed by entry. Tags and fused reporters are not part of them.
UniProt P33533, whole entry, looked up: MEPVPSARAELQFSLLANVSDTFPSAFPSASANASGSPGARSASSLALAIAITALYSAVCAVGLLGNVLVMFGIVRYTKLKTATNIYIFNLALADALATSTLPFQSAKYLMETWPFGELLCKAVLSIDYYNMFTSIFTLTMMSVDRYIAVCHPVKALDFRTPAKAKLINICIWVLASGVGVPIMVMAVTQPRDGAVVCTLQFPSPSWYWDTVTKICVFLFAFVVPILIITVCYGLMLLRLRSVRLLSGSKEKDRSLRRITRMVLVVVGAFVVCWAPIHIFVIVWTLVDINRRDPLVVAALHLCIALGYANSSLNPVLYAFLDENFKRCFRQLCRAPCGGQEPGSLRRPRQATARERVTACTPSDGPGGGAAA
UniProt P33535, whole entry, looked up: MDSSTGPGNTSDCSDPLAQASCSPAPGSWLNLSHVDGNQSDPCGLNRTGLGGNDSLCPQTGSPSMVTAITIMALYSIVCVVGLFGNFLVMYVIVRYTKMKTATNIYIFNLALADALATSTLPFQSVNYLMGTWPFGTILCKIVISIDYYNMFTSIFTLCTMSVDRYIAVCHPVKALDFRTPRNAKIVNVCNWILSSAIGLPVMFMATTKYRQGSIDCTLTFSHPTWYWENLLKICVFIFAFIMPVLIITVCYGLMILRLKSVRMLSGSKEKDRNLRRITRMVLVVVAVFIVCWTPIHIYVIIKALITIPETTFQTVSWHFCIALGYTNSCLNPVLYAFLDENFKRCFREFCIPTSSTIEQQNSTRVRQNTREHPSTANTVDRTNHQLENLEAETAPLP

Each structure is given as a SMILES string. Several values for one entry are separate records, joined by “and”; a condition that tells them apart may be missing. Equal entries are not always repeated.

Data on nine compounds can be found in ChEMBL document CHEMBL1125327, “Conformationally restricted deltorphin analogues” (J Med Chem, 1992).

Consider `CC(C)[C@@H]1NC(=O)[C@@H](NC(=O)[C@H](Cc2ccccc2)NC(=O)[C@@H](C)NC(=O)[C@@H](N)Cc2ccc(O)cc2)CC(=O)NCCC[C@H](C(N)=O)NC(=O)[C@@H](C(C)C)NC1=O`, for which the figures for the Relative potency in assay [1] and in assay [2] were 0.0045 and 0.0279, respectively. In the case of `CSCC[C@H](NC(=O)[C@H](CC(C)C)NC(=O)[C@H](Cc1c[nH]cn1)NC(=O)[C@H](Cc1ccccc1)NC(=O)[C@@H](CCSC)NC(=O)[C@@H](N)Cc1ccc(O)cc1)C(=O)N[C@@H](CC(=O)O)C(N)=O`, the Relative potency in assay [2] is 0.0659 and 0.0227. Take `CC(C)[C@H](NC(=O)[C@@H]1CCC(=O)NCCCC[C@@H](NC(=O)[C@@H](N)Cc2ccc(O)cc2)C(=O)N[C@@H](Cc2ccccc2)C(=O)N1)C(=O)N[C@H](C(=O)NCC(N)=O)C(C)C`: the Relative potency was determined as 0.691 in assay [1] and 0.539 in assay [2]. Consider `CCCC[C@H](NC(=O)[C@H](CC(C)C)NC(=O)[C@H](Cc1c[nH]cn1)NC(=O)[C@H](Cc1ccccc1)NC(=O)[C@@H](CCCC)NC(=O)[C@@H](N)Cc1ccc(O)cc1)C(=O)N[C@@H](CC(=O)O)C(N)=O`, for which the figures for the Relative potency in assay [1] and in assay [2] were 3.8 and 0.0806, respectively.

The compound `CC(C)[C@H](NC(=O)[C@H](CC(=O)O)NC(=O)C1(NC(=O)[C@@H](C)NC(=O)[C@@H](N)Cc2ccc(O)cc2)Cc2ccccc2C1)C(=O)N[C@H](C(=O)NCC(N)=O)C(C)C` displayed a Relative potency in assay [1] of 0.51. `CC(C)[C@@H]1NC(=O)[C@@H](C(C)C)NC(=O)[C@H](NC(=O)[C@H](Cc2ccccc2)NC(=O)CNC(=O)[C@@H](N)Cc2ccc(O)cc2)CCC(=O)NCCCC[C@@H](C(N)=O)NC1=O`: the figures for the Relative potency in assay [1] and in assay [2] were 0.00349 and 0.00987, respectively. With `NC(=O)[C@@H]1CC(=O)NCCC[C@@H](NC(=O)[C@@H](N)Cc2ccc(O)cc2)C(=O)N[C@@H](Cc2ccccc2)C(=O)N1`, the Relative potency turned out to be 0.00114 in assay [1] and 0.907 in assay [2]. Turning to `CC(C)[C@@H]1NC(=O)[C@@H](CC(=O)O)NC(=O)[C@H](Cc2ccccc2)NC(=O)[C@H](NC(=O)[C@@H](N)Cc2ccc(O)cc2)CCCCNC(=O)CC[C@H](C(N)=O)NC(=O)[C@@H](C(C)C)NC1=O`, the Relative potency was found to be 0.0102 in assay [1] and 0.0106 in assay [2]. As for `CC(C)[C@H](NC(=O)[C@H](CC(=O)O)NC(=O)[C@H](Cc1ccccc1)NC(=O)[C@@H]1Cc2ccccc2CN1C(=O)[C@@H](N)Cc1ccc(O)cc1)C(=O)N[C@H](C(=O)NCC(N)=O)C(C)C`, in assay [3], the Relative potency was 0.39.
